# Binding of CDR-mutated scFvs to a peptide of the spike HR2 region

All variants were tested on one target, the spike HR2 peptide PDVDLGDISGINAS (SARS-CoV-2).

Parent scFv Ab-95: VH joined to VL by a (GGGGS)3 linker. Changes lie in the light chain CDRs alone.
VH: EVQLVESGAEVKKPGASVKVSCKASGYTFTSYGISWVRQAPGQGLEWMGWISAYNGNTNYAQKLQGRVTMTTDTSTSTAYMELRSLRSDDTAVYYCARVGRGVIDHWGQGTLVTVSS
VL: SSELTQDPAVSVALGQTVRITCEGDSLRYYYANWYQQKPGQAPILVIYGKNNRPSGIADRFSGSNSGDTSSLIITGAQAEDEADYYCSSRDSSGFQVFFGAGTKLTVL

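The library (AAYL52) carries one to three amino acid substitutions per variant, with no insertions or deletions. AlphaSeq pools MATa yeast showing the antibodies with MATalpha yeast showing the peptide. After mating in shaken culture at 30 °C for 16 h, diploids were selected and their barcode pairs sequenced. Scores were corrected for input abundance and mapped to Kd with protein pairs of known affinity run in the same pool. There are three technical replicates.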

Changes read parent residue, position, new residue, counted from the first residue of the VL shown. Scale: log10 of Kd in nM, estimated from mating counts; low values are strong binders. A mean of the replicates is given; it leaves out those without a signal. "nd" marks a missing value. The strain was present, yet no cells mated with the target were sequenced in any replicate, which points to weak or no binding. Nonspecific signal, from three strains lacking the peptide, appeared in 28% of pairings of library AAYL52, centred on 3.91 (5% of these signals below 2.90); values are not corrected for it. For each scFv, signals with the empty controls are counted beside the result.

changes | mean, log10 nM | replicates with signal | signal with controls
E23H A32I R90C | 3.56 | 2 of 3 | 4 of 9
Y30Q A32S R90Y | 1.98 | 3 of 3 | 0 of 9
S26I R90S | 4.02 | 2 of 3 | 4 of 9
S26K L27W S55L | 3.36 | 3 of 3 | 7 of 9
D25H S26I S92L | nd | 0 of 3 | 1 of 9
K50M S55E S88K | 2.70 | 1 of 3 | 3 of 9
R90W D91R | 4.28 | 2 of 3 | 1 of 9
Y29W S89R S93P | 4.68 | 2 of 3 | 6 of 9
G24D N33P S55R | 3.10 | 2 of 3 | 1 of 9
A32W G94H F95V | nd | 0 of 3 | 4 of 9
N51D S89P Q96D | nd | 0 of 3 | 2 of 9
K50C P54H F98I | 4.16 | 1 of 3 | 2 of 9
Y29V N52Y V97Q | 3.47 | 2 of 3 | 4 of 9
D25K R28E V97E | 3.72 | 1 of 3 | 3 of 9
R53E S89L R90W | nd | 0 of 3 | 1 of 9
A32D P54E V97A | nd | 0 of 3 | 2 of 9
A32H R53A S89P | 3.76 | 3 of 3 | 6 of 9
Y30H G49S N52K | 1.72 | 3 of 3 | 0 of 9
S26P N33A Q96L | 3.75 | 3 of 3 | 4 of 9
D25R Y29V D91L | 3.49 | 2 of 3 | 4 of 9
G24L R90W G94R | 3.37 | 3 of 3 | 4 of 9
L27D V97G F98V | 1.99 | 3 of 3 | 5 of 9
L27P A32C N51I | nd | 0 of 3 | 1 of 9
G24H R53D F95D | 4.15 | 1 of 3 | 3 of 9
K50C N51S F98S | 3.27 | 1 of 3 | 3 of 9
G24D D25W | 3.04 | 1 of 3 | 2 of 9
R28W K50Y V97S | 4.35 | 3 of 3 | 2 of 9
G24R Y30C N52S | 3.71 | 2 of 3 | 2 of 9
S55T G94D V97W | 2.65 | 3 of 3 | 3 of 9
R28D N33A S92V | 4.16 | 1 of 3 | 3 of 9
R28P N52P R90W | 3.74 | 1 of 3 | 3 of 9
N33G S55Y F95A | 2.48 | 3 of 3 | 5 of 9
Y29K F95G Q96S | nd | 0 of 3 | 3 of 9
S88G Q96S F98H | 2.93 | 3 of 3 | 2 of 9
S26W K50Q F95N | 3.64 | 3 of 3 | 2 of 9
G24F S93D | 4.32 | 2 of 3 | 4 of 9
E23L Y29S D91F | 2.75 | 3 of 3 | 6 of 9
A32M G49K | nd | 0 of 3 | 1 of 9
E23H Y30V R53G | 3.36 | 2 of 3 | 1 of 9
Y31I K50G P54V | 2.84 | 1 of 3 | 1 of 9
Y31W N51C V97C | 3.90 | 1 of 3 | 1 of 9
D25R S26E S55T | 3.85 | 2 of 3 | 0 of 9
Y29A Y30P S88A | 2.24 | 3 of 3 | 3 of 9
Y29M Y30F N51Y | 4.56 | 2 of 3 | 1 of 9
S26A N33G N52M | 3.86 | 1 of 3 | 1 of 9
E23D G24Q Y31L | 3.19 | 1 of 3 | 1 of 9

Source: Engelhart et al. 2022 (doi:10.1038/s41597-022-01779-4), MIT Lincoln Laboratory and A-Alpha Bio; data file from the FLAb repository.